Experimental data reported in patent US11555029B2, “PD-1/PD-L1 inhibitors” (Gilead Sciences, Inc., priority 2018, dated 2023).
Where two headings read alike, the source gives them in different places.

Details: all doses, entire study

For `COc1nc(-c2cccc(-c3cccc(-c4cnc(CNC[C@@H]5CCC(=O)N5)c(OC)n4)c3Cl)c2Cl)cnc1CNC[C@@H]1CCC(=O)N1` [compound 139], the “effect on body weight” value (listed as Compound 139) was “no effect”, the tolerability (listed as Compound 139) was “well tolerated” and the “effect on body weight” value (listed as compound 139) was “no treatment-related effect”. The tolerability (listed as compound 139) was “well-tolerated”.
